The numbers were not newly measured in patent US6444862B1, “Synthesis and isolation of metal alkoxides” (Mine Safety Appliances Company, priority 2000, dated 2002), which cites them from elsewhere.

For this data set the following is noted: the parent alcohol; cited from earlier work.

For the substance sodium isopropoxide, the solubility in isopropanol entry is listed as “about 2 wt %”.
